Measured values as given in US20170065730A1, “COMPOSITION FOR IMAGING ATHEROSCLEROSIS AND METHOD FOR DIAGNOSING ATHEROSCLEROSIS BY USING SAME” (priority 2014, published 2017).

Tests used:
[1] = Stability of labeled 99mTc-MSA by radiochemical purity, kept at room temperature; assay type: physicochemical; settings: for radiochemical purity: room temperature
Experimental: (§1) After adding 2 mL or 5 mL of a physiological saline solution of pertechnetate (^99mTcO^4−) prepared from a Mo-99/Tc-99m generator (Samyoung Unitech) to the kit of Example, reaction was conducted at room temperature for 1-30 minutes. The radioisotope labeling efficiency of technetium was determined by spotting a small amount of the reactant on an ITLC (instant thin layer chromatography) plate and then measuring the distribution of radioactivity using a TLC scanner after developing with physiological saline. The labeled technetium remained at the origin and all other unlabeled technetium moved to the solvent front. The labeling efficiency was 99% or higher. The stability of the labeled ^99mTc-MSA was investigated by measuring radiochemical purity (%) with time when it was kept at room temperature and when it was mixed with human serum and then incubated at 37° C.

[2] = assay type: in vitro ADME, human
Experimental: as §1

Substance: ^99mTc-MSA: Tc-99m labeled mannosylated human serum albumin prepared with the rMSA kit
- purity maintained ([1]; kept at room temperature, for 20 hours): ≥ 90%
- radiochemical purity ([1]; 0.5 hr): 94.5%
- radiochemical purity ([1]; 1.0 hr): 96.4%
- radiochemical purity ([1]; 2.0 hr): 91.1%
- radiochemical purity ([1]; 3.0 hr): 94.0%
- radiochemical purity ([1]; 20.0 hr): 91.0%
- radiochemical purity ([1]; 24.0 hr): 95.3%
- purity maintained [2]: ≥ 90%

Like-named read-outs stand apart in the source and are kept apart here.
